Paper PMC4496781, “Functional Roles of Aromatic Residues and Helices of Papiliocin in its Antimicrobial and Anti-inflammatory Activities” (Scientific Reports, 2015)

Assays:
Conditions in all cases: broth microdilution, 16 h incubation; three independent experiments in triplicate, SD 14.0%
Bacillus subtilis = test system: Bacillus subtilis
Method: (§1) MICs of the peptides against six standard bacteria and four multidrug-resistant bacteria were determined by a broth microdilution assay as described previously. […] Cytotoxicities against mammalian cells were measured against human RBCs, mouse macrophage-derived RAW264.7 cells, and fibroblast NIH-3T3 cells. The anti-inflammatory activities of the peptides were examined by inhibiting nitrite production in LPS-stimulated RAW264.7 cells.

Escherichia coli = test system: Escherichia coli
Method: as §1

Pseudomonas aeruginosa = test system: Pseudomonas aeruginosa
Method: as §1

Salmonella typhimurium = test system: Salmonella typhimurium
Method: as §1

Staphylococcus aureus = test system: Staphylococcus aureus
Method: as §1

CC[C@H](C)[C@H](NC(=O)CN)C(=O)NCC(=O)N[C@@H](C)C(=O)N[C@H](C(=O)N[C@@H](CC(C)C)C(=O)N[C@@H](CCCCN)C(=O)N[C@H](C(=O)N[C@@H](CC(C)C)C(=O)N[C@H](C(=O)N[C@H](C(=O)NCC(=O)N[C@@H](CC(C)C)C(=O)N1CCC[C@H]1C(=O)N[C@@H](C)C(=O)N[C@@H](CC(C)C)C(=O)N[C@H](C(=O)N[C@@H](CO)C(=O)N[C@@H](Cc1c[nH]c2ccccc12)C(=O)N[C@H](C(=O)N[C@@H](CCCCN)C(=O)N[C@@H](CCCNC(=N)N)C(=O)N[C@@H](CCCCN)C(=O)N[C@@H](CCCNC(=N)N)C(=O)N[C@@H](CCC(N)=O)C(=O)N[C@@H](CCC(N)=O)C(N)=O)[C@@H](C)CC)[C@@H](C)CC)[C@@H](C)O)[C@@H](C)O)C(C)C)C(C)C [Melittin, reference compound]
4.00 µM: MIC, Bacillus subtilis (Bacillus subtilis) | MIC, Escherichia coli (Escherichia coli) | MIC, Pseudomonas aeruginosa (Pseudomonas aeruginosa) | MIC, Salmonella typhimurium (Salmonella typhimurium) | MIC, Staphylococcus aureus (Staphylococcus aureus)
